Target: T1, Histone deacetylase 8 (Homo sapiens, UniProt Q9BY41)
T1 sequence (Q9BY41 whole entry): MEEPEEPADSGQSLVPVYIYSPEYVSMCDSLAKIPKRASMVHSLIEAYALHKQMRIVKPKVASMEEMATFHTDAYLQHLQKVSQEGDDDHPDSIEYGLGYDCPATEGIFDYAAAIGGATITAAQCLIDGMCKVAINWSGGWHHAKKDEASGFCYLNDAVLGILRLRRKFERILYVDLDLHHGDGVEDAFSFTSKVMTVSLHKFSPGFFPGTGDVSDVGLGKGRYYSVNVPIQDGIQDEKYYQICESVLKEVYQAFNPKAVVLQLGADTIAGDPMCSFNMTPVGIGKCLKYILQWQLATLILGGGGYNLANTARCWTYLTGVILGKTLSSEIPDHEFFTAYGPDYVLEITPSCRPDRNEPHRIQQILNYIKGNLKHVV
Test: Inhibition of His-tagged full length recombinant human HDAC8 expressed in baculovirus expression system assessed as release of 7-amino-4-methylcoumarin by fluorogenic assay

With `O=C(CCCCCCC(=O)Nc1ccccc1)NO` [VORINOSTAT] the IC50 was > 300 nM.

From ChEMBL document CHEMBL3865790, “2-(Phenylsulfonyl)quinoline N-hydroxyacrylamides as potent anticancer agents inhibiting histone deacetylase” (Eur J Med Chem, 2016)
